# scFv variants of Ab-14 (heavy chain) against a SARS-CoV-2 spike peptide

The measurements come from Li et al. 2023 (doi:10.1038/s41467-023-39022-2) through the FLAb antibody collection.

Target peptide (SARS-CoV-2 spike, HR2 region): PDVDLGDISGINAS

Ab-14 is the parent antibody, in scFv form: VH, then a (GGGGS)3 linker, then VL. The light chain is unchanged in all variants.
VH: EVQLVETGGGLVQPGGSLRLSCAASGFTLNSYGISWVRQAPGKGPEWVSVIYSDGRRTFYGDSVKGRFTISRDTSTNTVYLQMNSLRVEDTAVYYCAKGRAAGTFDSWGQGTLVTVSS
VL: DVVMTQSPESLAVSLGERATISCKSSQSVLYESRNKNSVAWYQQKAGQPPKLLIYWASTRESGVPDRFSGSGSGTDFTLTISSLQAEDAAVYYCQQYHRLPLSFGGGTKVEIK

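This is the validation round: designs drawn from the data on random variants, tested in the same kind of assay. Their group label is 14H_GP_Gibbs (GP: Gaussian process model; Gibbs: Gibbs sampling; a sequence that several methods proposed may carry one label only). The scFvs were displayed on barcoded MATa yeast, the peptide on MATalpha yeast. Pairs that bind mate more often; barcode pairs of the diploids are counted by sequencing. Read counts were normalised to the haploid input and turned into Kd by a linear fit to BCL2-family pairs of known affinity, for each replicate. The assay was run in six technical replicates.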

Positions count from residue 1 of the parent VH; T28S puts S in place of T. Scale: log10 of Kd in nM, estimated from mating counts; low values are strong binders. A pair that was not seen in that replicate is written "n.d."; this usually means weak binding, but a binder can also be missed. The authors averaged sequences with at least three values out of six and counted those with two or fewer as poor binders. Of ten entries with the parent sequence, four were seen in most replicates (averages 0.34 to 2.37), three in one and three in none, so single entries are noisy. A sequence measured in both rounds can read differently, since the two assays cover different ranges. Nonspecific signal, from three strains lacking the peptide, appeared in 1% of pairings of all heavy chain designs, centred on 2.08 (5% of these signals below 0.84); values are not corrected for it. Also given: how often the same scFv was detected with the empty control strains, with their mean in brackets.

{"changes": "T28S+S31D+R56K+G61A", "log10 Kd (nM) by replicate": "0.15 0.22 0.00 0.08 0.39 0.15", "empty controls": "1/18 (1.41)"}
{"changes": "F27K+R56K+G61A+S63D+A101T", "log10 Kd (nM) by replicate": "1.40 0.51 0.60 0.89 0.74 0.92", "empty controls": "0/18"}
{"changes": "T28P+S31E+A101S+S107T", "log10 Kd (nM) by replicate": "0.83 0.59 0.71 0.43 1.13 0.71", "empty controls": "0/18"}
{"changes": "G26M+T28N+S53A+R100N", "log10 Kd (nM) by replicate": "1.02 n.d. -0.11 1.88 0.90 1.70", "empty controls": "0/18"}
{"changes": "T28S+S31E+G61C+R100K+S107L", "log10 Kd (nM) by replicate": "n.d. n.d. n.d. n.d. n.d. n.d.", "empty controls": "0/18"}
{"changes": "T28D+F59A+S63R+R100Q", "log10 Kd (nM) by replicate": "0.14 -0.84 -0.03 -0.36 -0.08 0.49", "empty controls": "0/18"}
{"changes": "T28G+S31E+A101E+S107N", "log10 Kd (nM) by replicate": "0.64 n.d. 0.06 0.32 1.02 0.74", "empty controls": "0/18"}
{"changes": "G61R+S63D+R100Q+A101T+S107L", "log10 Kd (nM) by replicate": "n.d. n.d. n.d. n.d. n.d. n.d.", "empty controls": "0/18"}
{"changes": "S53A+R100K+A101T+S107V", "log10 Kd (nM) by replicate": "0.06 0.07 -0.59 -0.55 -0.17 0.04", "empty controls": "0/18"}
{"changes": "T28E+G61I+S63D+R100Q+A101T", "log10 Kd (nM) by replicate": "0.52 0.26 0.07 0.11 0.25 0.32", "empty controls": "2/18 (2.42)"}
{"changes": "T28D+R100Q+S107I", "log10 Kd (nM) by replicate": "1.27 0.54 0.83 0.47 0.59 0.60", "empty controls": "1/18 (2.48)"}
{"changes": "T28W+S31E+S107T", "log10 Kd (nM) by replicate": "2.03 1.35 1.17 0.59 1.99 1.25", "empty controls": "0/18"}
{"changes": "T28V+S31D+G61A+S63A+A101T", "log10 Kd (nM) by replicate": "n.d. 1.14 0.84 1.18 1.15 1.19", "empty controls": "0/18"}
{"changes": "T28D+R100H+S107W", "log10 Kd (nM) by replicate": "n.d. n.d. n.d. n.d. n.d. n.d.", "empty controls": "0/18"}
{"changes": "T28S+N30E+S31E+A101T", "log10 Kd (nM) by replicate": "-0.18 0.17 -0.34 -0.83 -0.96 -0.14", "empty controls": "0/18"}
{"changes": "R56K+G61S+S63R+R100E+S107T", "log10 Kd (nM) by replicate": "0.18 -0.28 -0.18 -0.25 0.20 0.57", "empty controls": "0/18"}
{"changes": "T28S+S63D+R100Q+S107T", "log10 Kd (nM) by replicate": "-0.01 0.38 0.13 -0.01 0.07 0.19", "empty controls": "0/18"}
{"changes": "T28S+S63D+A101T+S107T", "log10 Kd (nM) by replicate": "0.46 0.29 0.29 0.24 0.27 0.75", "empty controls": "0/18"}
{"changes": "N30D+G61A+S63R+S107V", "log10 Kd (nM) by replicate": "1.40 0.83 n.d. 1.90 2.23 2.50", "empty controls": "0/18"}
{"changes": "T28S+S31E+R56K+S63D+A101Q", "log10 Kd (nM) by replicate": "n.d. n.d. n.d. -0.90 -1.48 n.d.", "empty controls": "0/18"}
{"changes": "T28E+A101T+S107C", "log10 Kd (nM) by replicate": "n.d. n.d. n.d. n.d. n.d. n.d.", "empty controls": "0/18"}
{"changes": "N30D+S63D+A101T+S107A", "log10 Kd (nM) by replicate": "0.61 0.54 0.36 0.47 0.45 0.69", "empty controls": "1/18 (3.22)"}
{"changes": "T28S+G61Q+A101T+S107R", "log10 Kd (nM) by replicate": "0.91 1.39 0.97 0.31 0.90 0.51", "empty controls": "0/18"}
{"changes": "G61A+S63D+A101E", "log10 Kd (nM) by replicate": "-0.28 -0.18 -0.38 -0.43 -0.26 -0.15", "empty controls": "1/18 (2.22)"}
{"changes": "G26K+T28S+R56K+A101Q", "log10 Kd (nM) by replicate": "n.d. n.d. n.d. n.d. n.d. n.d.", "empty controls": "0/18"}
{"changes": "T28E+G61T+S63D+A101E", "log10 Kd (nM) by replicate": "0.35 0.50 0.13 -0.24 -0.16 -0.05", "empty controls": "0/18"}
{"changes": "R56V+G61S+R100Q+S107V", "log10 Kd (nM) by replicate": "0.86 0.61 1.40 0.17 0.14 0.18", "empty controls": "0/18"}
{"changes": "T28G+G61S+A101E", "log10 Kd (nM) by replicate": "0.14 -0.69 0.02 0.29 1.88 0.03", "empty controls": "0/18"}

Repeated from above, the 3 best binders with a signal in all replicates:

{"changes": "T28S+N30E+S31E+A101T", "log10 Kd (nM) by replicate": "-0.18 0.17 -0.34 -0.83 -0.96 -0.14", "empty controls": "0/18"}
{"changes": "G61A+S63D+A101E", "log10 Kd (nM) by replicate": "-0.28 -0.18 -0.38 -0.43 -0.26 -0.15", "empty controls": "1/18 (2.22)"}
{"changes": "S53A+R100K+A101T+S107V", "log10 Kd (nM) by replicate": "0.06 0.07 -0.59 -0.55 -0.17 0.04", "empty controls": "0/18"}